Measurements published in ChEMBL document CHEMBL1201862, “PubChem BioAssay data set” (2004).
The entries are a selection whose mix differs from that of the whole data set. Only a part of the results of these assays is listed, not drawn at random. Active and inactive are the calls of the source. The rule behind the calls is not given here.

Sequences of proteins named here, by UniProt entry; tags and fusion partners are left off.
UniProt P38398, whole entry, looked up: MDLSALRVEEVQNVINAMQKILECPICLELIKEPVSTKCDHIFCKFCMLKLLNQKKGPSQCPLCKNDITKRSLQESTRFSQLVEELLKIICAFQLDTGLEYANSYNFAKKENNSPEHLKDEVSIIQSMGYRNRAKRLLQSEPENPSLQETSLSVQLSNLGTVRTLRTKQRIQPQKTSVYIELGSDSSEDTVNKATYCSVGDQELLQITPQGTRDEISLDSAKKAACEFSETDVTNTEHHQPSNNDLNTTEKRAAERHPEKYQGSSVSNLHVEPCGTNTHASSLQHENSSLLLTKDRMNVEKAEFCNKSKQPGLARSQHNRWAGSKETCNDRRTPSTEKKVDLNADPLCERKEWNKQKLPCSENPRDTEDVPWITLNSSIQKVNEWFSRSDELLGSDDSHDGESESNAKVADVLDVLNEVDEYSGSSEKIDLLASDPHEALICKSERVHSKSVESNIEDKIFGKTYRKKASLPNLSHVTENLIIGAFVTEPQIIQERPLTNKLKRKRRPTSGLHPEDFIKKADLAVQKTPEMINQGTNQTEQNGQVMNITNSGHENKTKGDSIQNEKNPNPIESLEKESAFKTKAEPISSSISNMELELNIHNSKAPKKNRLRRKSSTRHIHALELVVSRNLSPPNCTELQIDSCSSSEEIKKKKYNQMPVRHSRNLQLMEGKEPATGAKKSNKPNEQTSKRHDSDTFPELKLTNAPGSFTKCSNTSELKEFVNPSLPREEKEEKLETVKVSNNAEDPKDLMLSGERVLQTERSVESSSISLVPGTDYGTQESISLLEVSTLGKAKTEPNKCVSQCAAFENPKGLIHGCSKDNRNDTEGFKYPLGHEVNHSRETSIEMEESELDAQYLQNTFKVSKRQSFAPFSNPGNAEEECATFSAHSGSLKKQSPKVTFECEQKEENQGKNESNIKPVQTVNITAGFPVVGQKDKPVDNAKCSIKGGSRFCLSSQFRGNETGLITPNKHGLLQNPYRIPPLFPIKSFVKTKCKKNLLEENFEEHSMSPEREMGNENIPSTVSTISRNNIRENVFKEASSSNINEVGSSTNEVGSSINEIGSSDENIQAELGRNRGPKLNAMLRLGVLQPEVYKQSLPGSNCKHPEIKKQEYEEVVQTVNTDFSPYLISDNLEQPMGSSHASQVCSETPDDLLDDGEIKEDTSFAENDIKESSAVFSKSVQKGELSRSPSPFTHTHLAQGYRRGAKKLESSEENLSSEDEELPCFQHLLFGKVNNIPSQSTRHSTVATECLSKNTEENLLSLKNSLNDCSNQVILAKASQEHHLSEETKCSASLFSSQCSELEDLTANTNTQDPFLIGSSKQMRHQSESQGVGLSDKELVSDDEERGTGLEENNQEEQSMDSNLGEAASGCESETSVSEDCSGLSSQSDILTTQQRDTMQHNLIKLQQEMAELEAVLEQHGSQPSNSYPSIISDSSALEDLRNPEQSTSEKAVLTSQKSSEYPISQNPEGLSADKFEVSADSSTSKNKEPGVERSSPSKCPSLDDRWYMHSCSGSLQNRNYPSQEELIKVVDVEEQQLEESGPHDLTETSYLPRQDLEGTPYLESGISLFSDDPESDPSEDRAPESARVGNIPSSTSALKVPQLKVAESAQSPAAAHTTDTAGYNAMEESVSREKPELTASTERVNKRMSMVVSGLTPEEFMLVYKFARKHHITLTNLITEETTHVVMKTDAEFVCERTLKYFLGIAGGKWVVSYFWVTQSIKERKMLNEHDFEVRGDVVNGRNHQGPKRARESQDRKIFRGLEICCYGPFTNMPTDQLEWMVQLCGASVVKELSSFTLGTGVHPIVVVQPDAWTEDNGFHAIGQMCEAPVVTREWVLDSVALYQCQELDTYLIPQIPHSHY

Target: Breast cancer type 1 susceptibility protein (Homo sapiens) (UniProt P38398)
Experiment: qHTS Assay to Identify Small Molecule Activators of BRCA1 Expression.
Type: functional

Row | Structure (SMILES) | Potency
1 | N=C(N)c1ccc(OCCCCCOc2ccc(C(=N)N)cc2)cc1 | inactive
